Source: patent US10947243B2, “Heteroaryl SYK inhibitors” (Boehringer Ingelheim International GmbH, priority 2014, dated 2021)

The chains behind the UniProt entries cited, without tags or fusion partners. Residues count along the entry.
UniProt P36888, 564-958: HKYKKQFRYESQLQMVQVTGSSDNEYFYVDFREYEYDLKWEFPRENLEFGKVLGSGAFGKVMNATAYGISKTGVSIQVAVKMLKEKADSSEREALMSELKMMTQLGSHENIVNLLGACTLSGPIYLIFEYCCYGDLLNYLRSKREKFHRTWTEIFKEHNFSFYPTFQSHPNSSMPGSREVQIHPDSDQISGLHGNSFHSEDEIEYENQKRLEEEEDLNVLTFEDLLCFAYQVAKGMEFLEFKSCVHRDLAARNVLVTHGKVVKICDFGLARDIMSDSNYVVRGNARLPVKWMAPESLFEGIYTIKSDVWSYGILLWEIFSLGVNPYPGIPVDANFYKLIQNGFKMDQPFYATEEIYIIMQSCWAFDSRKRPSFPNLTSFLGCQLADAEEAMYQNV

Assays:
[1] = molecular target: Recombinant human Syk (amino acids 342-635) (Homo sapiens (Human), UniProt P43405); assay: Syk Kinase Test (Kinase Glo luminescence); assay type: biochemical; details: comparison compounds, Example numbers of WO 2013/014060; read-out: IC50 in μM (SYK-Inhibition)
Method: The output file of the reader is a csv file that contains the well number and measured relative light units (RLU). For data evaluation and calculation, the measurement of the negative control was set as 100% ctrl and the measurement of the positive control was set as 0% ctrl. Based on this values the % value for the measurement of each substance concentration was calculated using an Assay Explorer software (Accelrys). Normally, the % ctrl values calculated are between 0% and 100% values but may also occur outside these limits in individual cases based on variability or compound characteristics. The IC50 values were calculated from the % ctrl values using Assay Explorer software. Calculation: [y=(a−d)/(1+(x/c)^b)+d] a=low value, d=high value; x=conc M; c=IC50 M; b=hill; y=% ctrl.

FLT3 = FLT3 (Homo sapiens (Human), UniProt P36888); assay: FLT3 Kinase Test (Z'-LYTE); assay type: biochemical
Method: FLT3 is obtained from Invitrogen in 50 mM Tris (pH7.5); 100 mM NaCl; 0.05 mM EDTA, 0.05% NP-40, 2 mM DTT; 50% Glycerol # PV3182; Lot 286671; sequence see below). The enzyme is diluted to 720 nM (35 μg/ml) in enzyme dilution buffer and 10 μl aliquots are stored at −80° C.
The activity of FLT3 is measured using the Z′-LYTE™ assay technology from Invitrogen (#PV3191)
The assay is performed in 384 black plates from Corning (#3676) in a final volume of 10 μl by adding 5 μl of kinase peptide mix and 2.5 μl of compound dilution. The reaction is started by addition of 2.5 μl of the 4×ATP solution.
Positive controls are reaction mixtures containing no test compound; negative controls (blanks) are reaction mixtures containing no kinase. As a further control, the phosphopeptide solution is added to wells without kinase (=100% phosphorylation control). The non inhibited kinase reaction will result in a phosphorylation corresponding to 20%-30% of the phosphorylation control.
The reaction is performed for 1 h at room temperature before 5 μl of the development solution is added. After a further incubation for 1 h at room temperature 5 μl of the stop reagent is added. The plates are read on a Flex Station II 384 (Molecular Devices). […]
The output text file is evaluated in an “MS-Excel-VB-Makro” and “GraphPadPrism” (Version 5) (GraphPad Software Inc.) is used to calculate the results. […]

In the case of C[C@@H](Oc1cc(-c2cscn2)cc2nn(C)cc12)[C@H]1CNC(=O)C1 [Example 29, (4R)-4-[(1R)-1-(2-methyl-6-thiazol-4-yl-indazol-4-yl)oxyethyl]pyrrolidin-2-one], the IC50 [1] is reported as 0.002 µM, the IC50 (FLT3; read-out: FLT3-inhibition IC50-value) is reported as 20.6 µM and the IC50 (FLT3; read-out: IC50 in μM (FLT3-Inhibition)) is reported as 0.315 µM.

COc1cc(-c2cc3nn(C)cc3c(O[C@H](C)[C@H]3CNC(=O)C3)n2)ccc1O [Example 8, (4R)-4-[(1R)-1-[6-(4-Hydroxy-3-methoxy-phenyl)-2-methyl-pyrazolo[4,3-c]pyridin-4-yl]oxyethyl]pyrrolidin-2-one] showed an IC50 [1] of 0.001 µM.

In the case of CCCn1cc(-c2cc(O[C@H](C)[C@H]3CNC(=O)C3)c3cccnc3c2)cn1 [compound 114], the IC50 [1] is reported as 0.0002 µM.

Where two headings read alike, the source gives them in different places.
